Test results: patent publication US20240400715A1 (VIBRANT PHARMA, published 2024)

Sequences of proteins named here, by UniProt entry; tags and fusion partners are left off. A line that says so, or that is headed by a name, gives the form on record, which may keep a tag or linker. Residues count along the entry.
keyhole limpet haemocyanin (KLH, Sigma, H8283), UniProt Q10584, 20-3421 limits assumed, form in doubt, chain 2 of 2: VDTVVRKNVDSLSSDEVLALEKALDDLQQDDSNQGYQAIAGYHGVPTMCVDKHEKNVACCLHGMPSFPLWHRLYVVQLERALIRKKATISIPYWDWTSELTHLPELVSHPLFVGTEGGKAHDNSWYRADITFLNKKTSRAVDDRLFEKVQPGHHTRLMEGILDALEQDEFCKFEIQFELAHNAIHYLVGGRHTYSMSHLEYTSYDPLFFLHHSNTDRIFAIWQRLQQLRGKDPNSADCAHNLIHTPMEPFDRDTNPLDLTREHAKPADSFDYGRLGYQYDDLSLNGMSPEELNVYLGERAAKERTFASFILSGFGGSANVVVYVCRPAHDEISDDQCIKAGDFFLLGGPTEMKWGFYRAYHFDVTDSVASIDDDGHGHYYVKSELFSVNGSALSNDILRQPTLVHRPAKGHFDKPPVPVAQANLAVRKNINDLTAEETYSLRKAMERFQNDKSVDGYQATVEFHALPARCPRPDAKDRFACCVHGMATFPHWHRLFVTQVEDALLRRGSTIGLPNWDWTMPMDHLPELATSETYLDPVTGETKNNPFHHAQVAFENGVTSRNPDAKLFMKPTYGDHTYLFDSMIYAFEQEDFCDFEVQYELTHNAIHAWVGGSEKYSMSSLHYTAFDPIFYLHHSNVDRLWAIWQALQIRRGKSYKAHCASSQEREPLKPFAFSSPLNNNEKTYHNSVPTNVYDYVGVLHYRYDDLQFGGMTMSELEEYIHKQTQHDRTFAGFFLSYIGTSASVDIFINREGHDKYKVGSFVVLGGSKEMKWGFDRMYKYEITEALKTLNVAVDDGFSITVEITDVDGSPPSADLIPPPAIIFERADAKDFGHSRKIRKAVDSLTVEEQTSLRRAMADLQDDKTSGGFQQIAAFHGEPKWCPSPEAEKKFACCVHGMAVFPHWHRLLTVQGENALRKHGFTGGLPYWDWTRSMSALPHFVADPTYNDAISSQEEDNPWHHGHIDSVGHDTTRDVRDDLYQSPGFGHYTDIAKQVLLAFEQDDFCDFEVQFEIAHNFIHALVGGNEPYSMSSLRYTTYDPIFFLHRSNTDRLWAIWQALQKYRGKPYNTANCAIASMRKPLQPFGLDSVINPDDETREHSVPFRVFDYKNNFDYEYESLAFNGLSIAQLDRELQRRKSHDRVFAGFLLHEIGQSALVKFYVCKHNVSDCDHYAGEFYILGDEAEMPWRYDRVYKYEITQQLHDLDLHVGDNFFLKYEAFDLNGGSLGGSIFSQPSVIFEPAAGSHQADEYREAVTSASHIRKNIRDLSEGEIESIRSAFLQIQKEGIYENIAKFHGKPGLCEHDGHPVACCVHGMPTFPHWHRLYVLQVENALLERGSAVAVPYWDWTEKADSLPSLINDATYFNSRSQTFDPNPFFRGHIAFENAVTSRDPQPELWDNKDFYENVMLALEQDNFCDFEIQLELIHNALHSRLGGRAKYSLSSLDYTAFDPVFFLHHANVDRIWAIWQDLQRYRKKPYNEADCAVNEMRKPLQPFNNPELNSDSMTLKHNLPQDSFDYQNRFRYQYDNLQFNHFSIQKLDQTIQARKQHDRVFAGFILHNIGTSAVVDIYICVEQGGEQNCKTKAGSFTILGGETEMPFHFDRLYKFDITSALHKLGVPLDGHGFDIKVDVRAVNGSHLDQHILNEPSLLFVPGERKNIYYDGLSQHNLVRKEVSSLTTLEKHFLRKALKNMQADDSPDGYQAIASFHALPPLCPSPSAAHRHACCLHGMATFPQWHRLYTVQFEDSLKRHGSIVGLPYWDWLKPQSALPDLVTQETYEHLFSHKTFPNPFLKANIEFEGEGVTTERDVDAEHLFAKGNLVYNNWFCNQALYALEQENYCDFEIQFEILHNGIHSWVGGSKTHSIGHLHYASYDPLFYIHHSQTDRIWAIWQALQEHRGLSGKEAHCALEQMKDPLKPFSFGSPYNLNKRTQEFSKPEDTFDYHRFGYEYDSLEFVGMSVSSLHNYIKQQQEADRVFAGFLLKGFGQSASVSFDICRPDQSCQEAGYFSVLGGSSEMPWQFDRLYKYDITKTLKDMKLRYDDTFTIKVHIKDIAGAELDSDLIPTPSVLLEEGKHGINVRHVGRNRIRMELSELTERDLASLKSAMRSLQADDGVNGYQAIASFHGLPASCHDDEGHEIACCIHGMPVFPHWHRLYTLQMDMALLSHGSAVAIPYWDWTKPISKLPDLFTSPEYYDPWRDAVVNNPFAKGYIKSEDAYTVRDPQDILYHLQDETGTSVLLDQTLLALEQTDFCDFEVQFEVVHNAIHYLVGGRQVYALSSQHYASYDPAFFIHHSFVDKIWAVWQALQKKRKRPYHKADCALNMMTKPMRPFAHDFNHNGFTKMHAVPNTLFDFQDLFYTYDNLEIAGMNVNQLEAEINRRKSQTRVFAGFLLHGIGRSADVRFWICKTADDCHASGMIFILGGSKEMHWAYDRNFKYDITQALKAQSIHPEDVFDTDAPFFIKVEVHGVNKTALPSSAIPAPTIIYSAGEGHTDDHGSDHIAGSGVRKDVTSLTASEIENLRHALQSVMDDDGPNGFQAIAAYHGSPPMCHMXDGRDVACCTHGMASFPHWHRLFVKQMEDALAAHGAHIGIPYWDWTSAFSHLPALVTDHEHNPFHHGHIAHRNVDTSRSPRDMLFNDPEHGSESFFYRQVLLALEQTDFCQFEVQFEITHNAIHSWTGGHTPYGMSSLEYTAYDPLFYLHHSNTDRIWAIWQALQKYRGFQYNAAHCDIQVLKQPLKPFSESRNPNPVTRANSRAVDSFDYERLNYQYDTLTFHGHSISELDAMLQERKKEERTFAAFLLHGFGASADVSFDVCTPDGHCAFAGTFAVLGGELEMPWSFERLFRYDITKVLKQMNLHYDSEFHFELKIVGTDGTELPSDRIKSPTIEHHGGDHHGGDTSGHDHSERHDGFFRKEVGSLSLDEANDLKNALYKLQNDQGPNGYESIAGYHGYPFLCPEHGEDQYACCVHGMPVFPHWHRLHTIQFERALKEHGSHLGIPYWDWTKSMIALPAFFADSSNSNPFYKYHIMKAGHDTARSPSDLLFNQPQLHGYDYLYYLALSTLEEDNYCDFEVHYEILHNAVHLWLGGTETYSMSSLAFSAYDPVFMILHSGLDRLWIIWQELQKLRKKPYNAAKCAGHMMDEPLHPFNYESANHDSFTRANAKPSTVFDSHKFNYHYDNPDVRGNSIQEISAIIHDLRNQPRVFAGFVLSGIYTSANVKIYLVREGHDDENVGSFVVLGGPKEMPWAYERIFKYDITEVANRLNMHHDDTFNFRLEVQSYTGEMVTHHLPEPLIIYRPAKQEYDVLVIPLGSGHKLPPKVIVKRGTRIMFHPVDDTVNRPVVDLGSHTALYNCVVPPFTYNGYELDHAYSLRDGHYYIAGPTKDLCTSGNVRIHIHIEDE

Target: T1, keyhole limpet haemocyanin (KLH, Sigma, H8283) (keyhole limpet, UniProt Q10583 17-3414; Q10584 20-3421, limits assumed)
T1 construct: Bought preparation coated on the plate in the polyspecificity ELISA
Assay: ELISA, KLH coated at 5 ug/mL, 100 nM antibody, anti-human IgG-HRP

B1: Ofatumumab (antibody, V domains shown)
VH: EVQLVESGGGLVQPGRSLRLSCAASGFTFNDYAMHWVRQAPGKGLEWVSTISWNSGSIGYADSVKGRFTISRDNAKKSLYLQMNSLRAEDTALYYCAKDIQYGNYYYGMDVWGQGTTVTVSS
VL: EIVLTQSPATLSLSPGERATLSCRASQSVSSYLAWYQQKPGQAPRLLIYDASNRATGIPARFSGSGSGTDFTLTISSLEPEDFAVYYCQQRSNWPITFGQGTRLEIK
  Absorbance value (450 nm, polyspecificity ELISA): 1.63
